Sequences of proteins named here, by UniProt entry; tags and fusion partners are left off.
UniProt P33535, whole entry, looked up: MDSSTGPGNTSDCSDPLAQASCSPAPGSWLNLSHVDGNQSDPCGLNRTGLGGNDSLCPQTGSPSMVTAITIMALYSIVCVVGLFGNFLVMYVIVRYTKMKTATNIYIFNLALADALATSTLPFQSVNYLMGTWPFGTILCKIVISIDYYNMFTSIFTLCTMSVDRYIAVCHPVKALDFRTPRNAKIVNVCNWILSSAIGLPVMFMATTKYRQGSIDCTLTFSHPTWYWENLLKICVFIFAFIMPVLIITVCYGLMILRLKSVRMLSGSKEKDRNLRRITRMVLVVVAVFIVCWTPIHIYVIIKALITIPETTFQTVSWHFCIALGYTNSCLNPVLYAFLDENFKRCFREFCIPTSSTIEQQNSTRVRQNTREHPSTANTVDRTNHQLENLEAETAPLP
UniProt P33533, whole entry, looked up: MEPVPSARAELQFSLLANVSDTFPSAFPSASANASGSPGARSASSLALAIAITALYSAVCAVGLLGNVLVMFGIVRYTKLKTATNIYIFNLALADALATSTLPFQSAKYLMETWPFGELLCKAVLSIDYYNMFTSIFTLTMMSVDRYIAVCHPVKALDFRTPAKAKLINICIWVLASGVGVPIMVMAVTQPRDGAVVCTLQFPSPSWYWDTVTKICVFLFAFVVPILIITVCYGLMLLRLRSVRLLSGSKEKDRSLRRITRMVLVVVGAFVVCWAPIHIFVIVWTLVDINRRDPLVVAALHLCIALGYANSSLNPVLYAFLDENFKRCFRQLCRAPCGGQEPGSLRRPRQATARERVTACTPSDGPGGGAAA

According to ChEMBL document CHEMBL6109111, “Structure-activity relationship analysis of meta-substituted N-cyclopropylmethyl-nornepenthones with mixed KOR/MOR activities” (Eur J Med Chem, 2025):

What was measured:
Mu-type opioid receptor = Mu-type opioid receptor (Rattus norvegicus, UniProt P33535); assay: Displacement of [3H]-diprenorphine from rat MOR expressed in CHO cell membrane assessed as inhibition constant incubated for 30 mins by liquid scintillation counting method
[1] = target: Delta-type opioid receptor (Rattus norvegicus, UniProt P33533); assay: Displacement of [3H]-diprenorphine from rat DOR expressed in CHO cell membrane assessed as inhibition constant incubated for 30 mins by liquid scintillation counting method

Compound: CN(C(=O)Cc1ccc(Cl)c(Cl)c1)[C@@H]1CCCC[C@H]1N1CCCC1
- Ki (Mu-type opioid receptor): 1400 nM
- Ki [1]: > 5000 nM
